From patent US20020015967A1, “FUNCTIONAL EXPRESSION OF ADENOSINE RECEPTORS IN YEAST” (priority 1998, published 2002)

The chains behind the UniProt entries cited, without tags or fusion partners.
UniProt P30542, whole entry: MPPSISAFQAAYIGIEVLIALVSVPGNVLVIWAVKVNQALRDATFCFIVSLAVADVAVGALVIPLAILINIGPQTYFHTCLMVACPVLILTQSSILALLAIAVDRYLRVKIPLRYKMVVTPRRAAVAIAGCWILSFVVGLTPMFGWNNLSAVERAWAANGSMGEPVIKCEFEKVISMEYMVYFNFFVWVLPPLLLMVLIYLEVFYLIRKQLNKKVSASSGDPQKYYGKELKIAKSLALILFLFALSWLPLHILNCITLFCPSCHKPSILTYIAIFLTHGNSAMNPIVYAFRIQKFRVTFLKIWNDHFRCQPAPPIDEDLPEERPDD

Key:
human A2a receptor = biological target: T1, human A2a receptor (Homo sapiens, UniProt P29274); experiment: fus1-β-galactosidase assay in yeast expressing human A2a adenosine receptor; type: cell-based
T1 construct: expressed in transfected cells; host or cells: Saccharomyces cerevisiae (CY8342 carrying mutant rat Galphas; plasmid pLPBX-A2a)

[1] = biological target: T2, human A1 adenosine receptor (Homo sapiens, UniProt P30542); experiment: Fus1-β-galactosidase assay in yeast expressing human A1 adenosine receptor; type: cell-based; conditions: NECA concentration 10^−8 M; yeast co-expressing Ste18-Gγ2 chimera and GPA41-Gαi3; 5 h; CPRG substrate
T2 construct: yeast alpha-factor prepro leader (N, cleaved yes); expressed in transfected cells; host or cells: Saccharomyces cerevisiae (CY7967-derived strain CY12660; plasmid p5095)

| Compound | antagonist activity in A2a yeast-based assay (human A2a receptor) | stimulation of β-galactosidase activity [1] |
| --- | --- | --- |
| CCCn1c(=O)c2[nH]c(C3CCCC3)nc2n(CCC)c1=O [DPCPX] | relatively inert |  |
| CCNC(=O)[C@H]1O[C@@H](n2cnc3c(N)ncnc32)[C@H](O)[C@@H]1O [NECA, 5′-N-ethylcarboxamido-adenosine] |  | approximately 2 fold |
